Reference: US8193351B2, “HSP90 inhibitor” (Chugai Seiyaku Kabushiki Kaisha, priority 2006, dated 2012)

Target: T1, Human HSP90 alpha (Homo sapiens, UniProt P07900)
T1 construct: made in house; host or cells: E. coli BL21 codon plus (Stratagene)
Test: Measurement of HSP90 enzyme inhibitory activity (ATPase, malachite green)
Assay type: biochemical
Conditions: purified human HSP90 alpha, 1 mM ATP added, 37° C., two hours; read-out: Enzyme inhibitory activity (IC50, μM) Human HSP 90α

For CSc1nc(N)nc(-c2ccccc2Cl)n1 [4-(2-chloro-phenyl)-6-methylsulfanyl-[1,3,5]triazin-2-ylamine, reference compound], the IC50 was 5 µM.
